Measured values reported in patent US20180298101A1.

The chains behind the UniProt entries cited, without tags or fusion partners. Residues count along the entry.
UniProt O60674, 835-1132: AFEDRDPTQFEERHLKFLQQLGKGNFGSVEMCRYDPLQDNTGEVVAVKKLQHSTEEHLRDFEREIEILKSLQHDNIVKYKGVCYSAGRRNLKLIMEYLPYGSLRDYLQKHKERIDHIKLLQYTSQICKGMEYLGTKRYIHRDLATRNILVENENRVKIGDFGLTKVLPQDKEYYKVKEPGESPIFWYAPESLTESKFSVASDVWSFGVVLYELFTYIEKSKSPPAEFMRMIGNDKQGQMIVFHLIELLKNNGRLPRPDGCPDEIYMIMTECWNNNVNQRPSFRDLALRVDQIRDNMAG
UniProt P52333, 811-1124: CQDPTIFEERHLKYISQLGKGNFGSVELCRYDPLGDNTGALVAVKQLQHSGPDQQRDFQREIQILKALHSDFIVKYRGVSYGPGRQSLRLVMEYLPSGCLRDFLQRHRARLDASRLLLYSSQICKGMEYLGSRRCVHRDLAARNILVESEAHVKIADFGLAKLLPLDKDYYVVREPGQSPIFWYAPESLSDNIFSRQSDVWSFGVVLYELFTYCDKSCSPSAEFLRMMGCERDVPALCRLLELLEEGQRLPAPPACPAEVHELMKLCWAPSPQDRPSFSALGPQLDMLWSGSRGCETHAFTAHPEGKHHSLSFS
UniProt P29597, 888-1187: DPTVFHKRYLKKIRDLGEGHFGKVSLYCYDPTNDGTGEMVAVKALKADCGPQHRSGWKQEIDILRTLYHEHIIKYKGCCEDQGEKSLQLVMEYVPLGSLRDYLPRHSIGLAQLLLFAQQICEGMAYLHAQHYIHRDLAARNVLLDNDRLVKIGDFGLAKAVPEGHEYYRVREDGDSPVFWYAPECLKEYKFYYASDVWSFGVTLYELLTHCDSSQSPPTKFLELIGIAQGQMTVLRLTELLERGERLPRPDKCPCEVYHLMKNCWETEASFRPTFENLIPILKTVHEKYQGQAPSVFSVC
UniProt P23458, 854-1154: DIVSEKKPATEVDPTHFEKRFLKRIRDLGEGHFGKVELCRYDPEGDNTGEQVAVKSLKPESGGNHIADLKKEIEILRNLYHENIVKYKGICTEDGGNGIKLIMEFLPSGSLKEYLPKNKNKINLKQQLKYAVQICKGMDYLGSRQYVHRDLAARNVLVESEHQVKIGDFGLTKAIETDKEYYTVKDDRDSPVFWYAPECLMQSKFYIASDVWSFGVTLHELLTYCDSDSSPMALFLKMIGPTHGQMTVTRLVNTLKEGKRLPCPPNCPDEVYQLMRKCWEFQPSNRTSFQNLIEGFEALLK

Tests used:
JAK2 kinase domain (JH1) = JAK2 kinase domain (JH1) (UniProt O60674)
JAK3 kinase domain (JH1) = JAK3 kinase domain (JH1) (UniProt P52333)
TYK2 kinase domain (JH1) = TYK2 kinase domain (JH1) (UniProt P29597)
IL-2Rβ (pY338) = assay: ITC
IL-2Rβ (pY358) = assay: ITC
IL-2Rβ (pY510) = assay: ITC
IL-2Rγ (pY303) = assay: ITC
IL-2Rγ (pY325) = assay: ITC
IL-2Rγ (pY357) = assay: ITC
IL-2Rγ (pY363) = assay: ITC
JAK1 (Y1034) = assay: ITC
mIL-2Rβ (pY392) = assay: ITC
JAK1 kinase domain (JH1) [1] = target: JAK1 kinase domain (JH1) (UniProt P23458)
JAK1 kinase domain (JH1) [2] = target: JAK1 kinase domain (JH1) (UniProt P23458); assay: cell-based or functional assay
JAK1 kinase domain (JH1) [3] = target: JAK1 kinase domain (JH1) (UniProt P23458); remark: listed apart in the source
JAK1 kinase domain (JH1) [4] = target: JAK1 kinase domain (JH1) (UniProt P23458); remark: listed apart in the source

Substance “hCIS-SH2-BC complex (ternary complex of human GST-CIS-SH2 construct, residues 66-258 with PEST region 174-202 deleted, with Elongin B and Elongin C) (from UniProt Q9NSE2 66-258; Q15370 1-118; P83940 17-112)” has an IC50 (JAK2 kinase domain (JH1)) of 2.4 µM, an IC50 (JAK3 kinase domain (JH1)) of 6.7 µM and an IC50 (TYK2 kinase domain (JH1)) of over 20 µM. For the same substance, the Kd (IL-2Rβ (pY338)) was 7 µM, the Kd (IL-2Rβ (pY358)) was over 10 µM and the Kd (IL-2Rβ (pY510)) was over 10 µM. It also gave a Kd (IL-2Rγ (pY303)) of over 10 µM, a Kd (IL-2Rγ (pY325)) of over 10 µM and a Kd (IL-2Rγ (pY357)) of over 10 µM. For the same substance, the Kd (IL-2Rγ (pY363)) was over 10 µM, the Kd (JAK1 (Y1034)) was over 10 µM and the Kd (mIL-2Rβ (pY392)) was 1.5 µM.
For “human CIS lacking the N-terminal 34 residues (ΔN34) in trimeric complex with elongin B and elongin C (from UniProt Q9NSE2 35-258; Q15370 1-118; Q15369 17-112)”, the IC50 (JAK1 kinase domain (JH1) [1]) was 96.8 µM.
With “human CIS lacking the PEST motif (ΔPEST) in trimeric complex with elongin B and elongin C (from UniProt Q9NSE2 1-258; Q15370 1-118; Q15369 17-112)” the IC50 of inhibition of the JAK1 kinase domain (JH1), in vitro kinase reaction (JAK1 kinase domain (JH1) [2]) was 3320 µM and the IC50 (JAK1 kinase domain (JH1) [3]) was 3.32 µM.
“human full-length CIS in trimeric complex with elongin B and elongin C (from UniProt Q9NSE2 1-258; Q15370 1-118; Q15369 17-112)” was tested, and the IC50 (JAK1 kinase domain (JH1) [4]) was 32.3 µM.

Read-outs that look alike come from different tables or passages of the source.
